The chains behind the UniProt entries cited, without tags or fusion partners. Where a name states a change or a piece, a line headed by the entry shows the natural chain unless it says otherwise.
UniProt P35563, whole entry: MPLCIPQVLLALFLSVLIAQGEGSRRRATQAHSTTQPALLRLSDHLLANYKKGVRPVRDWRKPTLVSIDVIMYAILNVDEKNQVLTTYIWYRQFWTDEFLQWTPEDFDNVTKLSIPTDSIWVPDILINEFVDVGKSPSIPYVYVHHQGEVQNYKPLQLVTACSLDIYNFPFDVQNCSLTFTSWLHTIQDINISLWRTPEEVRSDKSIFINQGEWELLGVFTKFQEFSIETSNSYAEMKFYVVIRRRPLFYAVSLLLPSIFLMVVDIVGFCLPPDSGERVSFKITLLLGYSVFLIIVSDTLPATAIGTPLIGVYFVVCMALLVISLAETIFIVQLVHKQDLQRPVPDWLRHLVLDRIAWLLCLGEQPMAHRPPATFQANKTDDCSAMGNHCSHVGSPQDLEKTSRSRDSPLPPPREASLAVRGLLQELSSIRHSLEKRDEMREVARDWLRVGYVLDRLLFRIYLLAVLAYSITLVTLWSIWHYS
UniProt Q9JJ16: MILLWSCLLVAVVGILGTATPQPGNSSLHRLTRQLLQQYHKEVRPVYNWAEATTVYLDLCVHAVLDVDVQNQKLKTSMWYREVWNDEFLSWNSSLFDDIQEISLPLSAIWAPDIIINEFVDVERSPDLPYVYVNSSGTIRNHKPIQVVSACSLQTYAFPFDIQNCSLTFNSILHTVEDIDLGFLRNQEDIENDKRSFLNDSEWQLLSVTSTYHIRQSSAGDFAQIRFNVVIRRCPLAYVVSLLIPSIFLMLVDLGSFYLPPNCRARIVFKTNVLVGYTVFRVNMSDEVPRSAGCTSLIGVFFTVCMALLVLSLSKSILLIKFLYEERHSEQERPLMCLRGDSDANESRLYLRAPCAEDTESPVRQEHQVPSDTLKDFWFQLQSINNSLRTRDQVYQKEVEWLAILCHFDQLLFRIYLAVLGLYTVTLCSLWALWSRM
UniProt P08908, whole entry: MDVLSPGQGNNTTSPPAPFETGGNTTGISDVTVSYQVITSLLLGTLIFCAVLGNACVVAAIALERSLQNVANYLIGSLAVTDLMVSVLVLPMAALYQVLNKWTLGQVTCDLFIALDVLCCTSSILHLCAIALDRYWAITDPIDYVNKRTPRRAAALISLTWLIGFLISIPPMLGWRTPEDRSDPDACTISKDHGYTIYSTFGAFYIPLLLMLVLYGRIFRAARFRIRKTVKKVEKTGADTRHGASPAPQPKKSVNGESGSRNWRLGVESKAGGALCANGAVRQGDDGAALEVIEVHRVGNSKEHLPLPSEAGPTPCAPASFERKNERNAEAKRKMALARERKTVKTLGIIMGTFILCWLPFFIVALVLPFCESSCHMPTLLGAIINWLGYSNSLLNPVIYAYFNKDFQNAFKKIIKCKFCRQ

According to ChEMBL document CHEMBL1127443 (J Med Chem, 1994):

Legend:
[1] = target: Serotonin 3 (5-HT3) receptor (Rattus norvegicus, UniProt P35563+Q9JJ16); experiment: Binding affinity was measured on 5-hydroxytryptamine 3 receptor in NG-108 cells labeled with [3H]GR-65630; type: cell-based
[2] = target: 5-hydroxytryptamine receptor 1A (Homo sapiens, UniProt P08908); experiment: biochemical

SMILES	Ki [1] [nM]	Ki [2] [nM]
NCCc1c[nH]c2ccc(O)cc12 [SEROTONIN]	320	–
CNS(=O)(=O)Cc1ccc2[nH]cc(CCN(C)C)c2c1	–	330
